{"sequences": {"note": "Protein sequences, listed by entry. Tags and fused reporters are not part of them.", "UniProt P10415, whole entry": "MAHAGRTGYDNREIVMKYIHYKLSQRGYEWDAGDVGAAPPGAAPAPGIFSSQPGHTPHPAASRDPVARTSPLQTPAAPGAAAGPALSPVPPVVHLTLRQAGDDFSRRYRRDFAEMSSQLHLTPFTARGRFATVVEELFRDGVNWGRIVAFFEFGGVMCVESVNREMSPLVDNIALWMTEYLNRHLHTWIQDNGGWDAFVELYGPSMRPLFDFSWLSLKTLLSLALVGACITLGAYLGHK"}, "source": "patent US9603854B2", "about": "“Indolizine compounds, a process for their preparation and pharmaceutical compositions containing them” (LES LABORATOIRES SERVIER, priority 2012, dated 2017)", "biological_target": "Bcl-2 protein (Homo sapiens (Human), UniProt P10415)", "experiment": "Inhibition of Bcl-2 by the fluorescence polarisation technique", "format": "binding", "settings": "Bcl-2 inhibition, fluorescence polarisation test; read-out: IC50 (nM) Bcl-2 FP", "method": "The fluorescence polarisation tests were carried out on microplates (384 wells). […] After incubation for 2 hours, the fluorescence polarisation is measured.", "note": "Structures can show the parent of a compound that is named as a salt."}
{"molecule": "Cn1ccc2ccc(N(C(=O)c3cc(-c4cc5c(cc4C(=O)N4Cc6ccccc6C[C@H]4CN4CCOCC4)OCO5)n4c3CCCCC4)c3ccc(O)cc3)cc21", "note": "[Example 84, N-(4-Hydroxyphenyl)-N-(1-methyl-1H-indol-6-yl)-3-{6-[((3S)-3-(4-morpholinylmethyl)-3,4-dihydro-2(1H)-isoquinolinyl)carbonyl]-1,3-benzodioxol-5-yl}-6,7,8,9-tetrahydro-5H-pyrrolo[1,2-a]azepine-1-carboxamide hydrochloride]", "values": [{"measurement": "IC50", "value": 18, "unit": "nM"}]}
